# Ab-95 light chain CDR variants: yeast mating affinities

All variants were tested on one target, the spike HR2 peptide PDVDLGDISGINAS (SARS-CoV-2).

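The starting antibody came from a phage panning campaign against this peptide. In library AAYL52, one, two or three CDR residues were substituted; doubles and triples were drawn at random. Affinity was read by AlphaSeq, a pooled yeast mating assay with surface-displayed partners. Pairs that bind mate more often; barcode pairs of the diploids are counted by sequencing. The ratio of observed to expected reads was calibrated, replicate by replicate, on BCL2-family standards whose Kd was known from biolayer interferometry. There are three technical replicates.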

Ab-95 is the parent antibody, in scFv form: VH, then the linker GGGGSGGGGSGGGGS, then VL. The heavy chain is unchanged in all variants.
VH: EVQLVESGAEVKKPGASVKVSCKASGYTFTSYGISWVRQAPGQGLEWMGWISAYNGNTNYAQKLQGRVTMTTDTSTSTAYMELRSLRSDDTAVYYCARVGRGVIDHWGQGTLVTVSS
VL: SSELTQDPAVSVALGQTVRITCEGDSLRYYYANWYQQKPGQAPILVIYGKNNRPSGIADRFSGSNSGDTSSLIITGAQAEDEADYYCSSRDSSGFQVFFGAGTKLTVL

Each variant is given by its three light chain CDRs, as the data file delimits them; those of the parent are EGDSLRYYYAN, GKNNRPS, SSRDSSGFQVF.
Numbers give log10(Kd / nM), so 0 is 1 nM and 3 is 1 µM. Smaller is tighter.
Averages over replicates are reported, and they cover detected replicates only.
A pair that was not seen in that replicate is written "ND"; this usually means weak binding, but a binder can also be missed.
For reference, the parent read 2.31 as the reference entry and 2.25 as a member of this library.

{"CDR-L1": "EGDHLAYYYAN", "CDR-L2": "GFNNRPS", "CDR-L3": "SSRDSSGFQVF", "log10 Kd (nM) by replicate": "3.34 3.03 3.44", "mean, log10 nM": "3.27", "control signals": "4 of 9 (4.40)"}
{"CDR-L1": "EIDSLRYYDAN", "CDR-L2": "GKNNRPS", "CDR-L3": "SSRDSSGFQVF", "log10 Kd (nM) by replicate": "2.34 2.17 2.30", "mean, log10 nM": "2.27", "control signals": "5 of 9 (3.94)"}
{"CDR-L1": "EGDSLRYYYAN", "CDR-L2": "GKRNRPS", "CDR-L3": "SSRDSNGIQVF", "log10 Kd (nM) by replicate": "ND 3.93 ND", "mean, log10 nM": "3.93", "control signals": "3 of 9 (3.78)"}
{"CDR-L1": "EPDSLRYYYAN", "CDR-L2": "GKNNRPS", "CDR-L3": "SSRDSVKFQVF", "log10 Kd (nM) by replicate": "4.05 5.32 2.70", "mean, log10 nM": "4.02", "control signals": "3 of 9 (3.55)"}
{"CDR-L1": "EGDSLRYYYSN", "CDR-L2": "GKNIRPS", "CDR-L3": "SSRDSSGFQAF", "log10 Kd (nM) by replicate": "2.49 2.75 3.38", "mean, log10 nM": "2.88", "control signals": "1 of 9 (2.82)"}
{"CDR-L1": "EGLSLRYYYAN", "CDR-L2": "GSNNRPS", "CDR-L3": "SSRDSSGFQAF", "log10 Kd (nM) by replicate": "2.98 3.08 2.08", "mean, log10 nM": "2.71", "control signals": "5 of 9 (4.08)"}
{"CDR-L1": "EGDSLRYCYAN", "CDR-L2": "GKNNRPS", "CDR-L3": "SSRDSRWFQVF", "log10 Kd (nM) by replicate": "3.26 ND ND", "mean, log10 nM": "3.26", "control signals": "2 of 9 (4.43)"}
{"CDR-L1": "EGDSLREYYAN", "CDR-L2": "CKNNRPS", "CDR-L3": "SSRDSSGFQHF", "log10 Kd (nM) by replicate": "ND ND ND", "mean, log10 nM": "ND", "control signals": "0 of 9"}
{"CDR-L1": "RGDSARYYYAN", "CDR-L2": "GKNNRPA", "CDR-L3": "SSRDSSGFQVF", "log10 Kd (nM) by replicate": "1.55 1.32 0.81", "mean, log10 nM": "1.23", "control signals": "3 of 9 (3.78)"}
{"CDR-L1": "EGDSLRYYYAN", "CDR-L2": "GKGNRPS", "CDR-L3": "QSYDSSGFQVF", "log10 Kd (nM) by replicate": "ND ND ND", "mean, log10 nM": "ND", "control signals": "1 of 9 (3.60)"}
{"CDR-L1": "EKDSLRYCYAN", "CDR-L2": "GKNNKPS", "CDR-L3": "SSRDSSGFQVF", "log10 Kd (nM) by replicate": "ND ND ND", "mean, log10 nM": "ND", "control signals": "1 of 9 (3.54)"}
{"CDR-L1": "EADSLRYYYAN", "CDR-L2": "GKNNRPS", "CDR-L3": "SSRDSSGFQVF", "log10 Kd (nM) by replicate": "2.70 2.60 2.59", "mean, log10 nM": "2.63", "control signals": "3 of 9 (4.36)"}
{"CDR-L1": "EGDSLRYYYAN", "CDR-L2": "GKNIRPS", "CDR-L3": "SSDKSSGFQVF", "log10 Kd (nM) by replicate": "3.84 5.47 4.03", "mean, log10 nM": "4.44", "control signals": "4 of 9 (4.08)"}
{"CDR-L1": "CGDSLVYYYAN", "CDR-L2": "GKNNRTS", "CDR-L3": "SSRDSSGFQVF", "log10 Kd (nM) by replicate": "0.98 1.52 0.31", "mean, log10 nM": "0.94", "control signals": "0 of 9"}
{"CDR-L1": "EGDSLRYYYTN", "CDR-L2": "GKNNRPS", "CDR-L3": "SSRDSSGFQDF", "log10 Kd (nM) by replicate": "3.15 3.04 2.61", "mean, log10 nM": "2.93", "control signals": "4 of 9 (4.39)"}
{"CDR-L1": "EGDSLRYYYCN", "CDR-L2": "IKNNRPS", "CDR-L3": "SSQDSSGFQVF", "log10 Kd (nM) by replicate": "3.16 ND ND", "mean, log10 nM": "3.16", "control signals": "4 of 9 (3.99)"}
{"CDR-L1": "EGDSLFYYYAN", "CDR-L2": "GKNNRPS", "CDR-L3": "SSRDSSQNQVF", "log10 Kd (nM) by replicate": "3.83 ND 3.76", "mean, log10 nM": "3.80", "control signals": "0 of 9"}
{"CDR-L1": "EGDSLRYYYAN", "CDR-L2": "GSNNRPS", "CDR-L3": "SDRDSSFFQVF", "log10 Kd (nM) by replicate": "3.83 3.73 4.13", "mean, log10 nM": "3.90", "control signals": "3 of 9 (3.82)"}
{"CDR-L1": "EGDSLRYQYAN", "CDR-L2": "CKNNRPS", "CDR-L3": "SSRDSEGFQVF", "log10 Kd (nM) by replicate": "4.72 4.28 3.02", "mean, log10 nM": "4.01", "control signals": "0 of 9"}
{"CDR-L1": "EGDSLRVYYAN", "CDR-L2": "GKNNRPS", "CDR-L3": "SKRDSSGFEVF", "log10 Kd (nM) by replicate": "3.71 4.57 3.30", "mean, log10 nM": "3.86", "control signals": "3 of 9 (3.32)"}
{"CDR-L1": "ENQQLRYYYAN", "CDR-L2": "GKNNRPS", "CDR-L3": "SSRDSSGFQVF", "log10 Kd (nM) by replicate": "ND ND ND", "mean, log10 nM": "ND", "control signals": "3 of 9 (3.66)"}
{"CDR-L1": "VGDSFRYYYAN", "CDR-L2": "GKNNRPS", "CDR-L3": "SSRDSSGFYVF", "log10 Kd (nM) by replicate": "ND ND ND", "mean, log10 nM": "ND", "control signals": "1 of 9 (4.34)"}
{"CDR-L1": "EGDSHVYYYAN", "CDR-L2": "GKNNRPS", "CDR-L3": "SSRDSSFFQVF", "log10 Kd (nM) by replicate": "2.03 1.96 2.20", "mean, log10 nM": "2.07", "control signals": "1 of 9 (3.69)"}

Three control strains display no target. For library AAYL52, 28% of the pairings with them gave a signal, with a median of 3.91 and one signal in twenty below 2.90, so weak values seen in few replicates may be background. For each scFv, signals with the empty controls are counted beside the result, with their mean in brackets.

From the AlphaSeq antibody data of Engelhart et al. 2022 (doi:10.1038/s41597-022-01779-4), copy in the FLAb collection.